In US7192924B2, “Corticotropin releasing factor 2 receptor agonists” (priority 2002, dated 2007) one finds EC50 data, which are given here for six compounds.

Read-outs that look alike come from different tables or passages of the source.

In assay [1] the target is T1, CRF2R (Homo sapiens, UniProt Q13324).
T1 sequence (Q13324 1-411): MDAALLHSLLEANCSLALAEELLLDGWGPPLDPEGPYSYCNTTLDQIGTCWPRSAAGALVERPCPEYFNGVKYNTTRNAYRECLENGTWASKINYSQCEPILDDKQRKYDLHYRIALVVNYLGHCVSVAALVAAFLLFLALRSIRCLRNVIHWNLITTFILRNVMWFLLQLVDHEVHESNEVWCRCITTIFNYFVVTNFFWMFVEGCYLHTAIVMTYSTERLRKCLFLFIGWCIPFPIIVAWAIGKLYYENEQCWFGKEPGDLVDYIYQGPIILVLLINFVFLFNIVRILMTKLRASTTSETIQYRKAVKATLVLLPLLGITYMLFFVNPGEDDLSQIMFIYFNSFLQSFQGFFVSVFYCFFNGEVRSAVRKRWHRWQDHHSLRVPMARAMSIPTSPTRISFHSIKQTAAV
The assay can be described thus: CRF2R agonist activity (EC50, Emax), called comparative CRF binding. It is filed as cell-based. The gist of the method:
(§1)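 Cells expressing only CRF1R or only CRF2R (or recombinant receptor) are contacted with peptide or vehicle control. Receptor activation is read as cAMP induction, measured in cell lysates or via a cAMP-responsive-element reporter gene such as luciferase.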

The target of assay [2] is T2, CRF1R (Homo sapiens, UniProt P34998).
T2 sequence (P34998 24-415): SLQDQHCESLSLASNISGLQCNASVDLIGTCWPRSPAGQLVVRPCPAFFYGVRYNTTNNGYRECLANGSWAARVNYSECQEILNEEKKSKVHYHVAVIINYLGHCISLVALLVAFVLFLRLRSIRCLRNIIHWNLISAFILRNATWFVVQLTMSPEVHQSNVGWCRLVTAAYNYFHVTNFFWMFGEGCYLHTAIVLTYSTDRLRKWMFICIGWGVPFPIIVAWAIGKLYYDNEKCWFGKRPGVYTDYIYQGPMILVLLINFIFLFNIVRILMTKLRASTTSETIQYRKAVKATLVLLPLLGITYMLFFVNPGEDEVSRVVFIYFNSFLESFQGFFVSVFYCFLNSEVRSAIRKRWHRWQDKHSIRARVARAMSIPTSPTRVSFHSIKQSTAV
The assay can be described thus: CRF1R agonist activity (EC50, Emax), called comparative CRF binding. The class given is cell-based. The method, boiled down: as §1

Take `CC[C@H](C)[C@H](NC(=O)[C@@H](NC(=O)[C@H](CC(=O)O)NC(=O)[C@H](CC(C)C)NC(=O)[C@H](CC(C)C)NC(=O)[C@H](CC(C)C)NC(=O)[C@H](CCCNC(=N)N)NC(=O)[C@H](CC(N)=O)NC(=O)[C@H](CC(N)=O)NC(=O)[C@H](C)NC(=O)[C@H](C)NC(=O)[C@H](CCC(N)=O)NC(=O)[C@H](CCC(N)=O)NC(=O)[C@H](CCCCN)NC(=O)[C@H](CCC(=O)O)NC(=O)[C@H](CCCCN)NC(=O)[C@H](CCC(=O)O)NC(=O)[C@H](CCC(N)=O)NC(=O)[C@H](CCCCN)NC(=O)[C@H](CCC(=O)O)NC(=O)[C@@H](NC(=O)[C@H](CCC(=O)O)NC(=O)[C@@H](NC(=O)[C@H](CCSC)NC(=O)[C@H](CCCCN)NC(=O)[C@H](CCCNC(=N)N)NC(=O)[C@H](CC(C)C)NC(=O)[C@H](CC(C)C)NC(=O)[C@H](CCC(=O)O)NC(=O)[C@H](CC(C)C)NC(=O)[C@@H]1CCCN1C(=O)[C@H](CC(C)C)NC(=O)[C@H](CC(=O)O)NC(=O)[C@@H](NC(=O)[C@H](CO)NC(=O)[C@@H](NC(=O)[C@@H]1CCCN1C(=O)[C@@H]1CCCN1C(=O)CNC(=O)[C@@H]1CCC(=O)N1)[C@@H](C)CC)[C@@H](C)CC)[C@@H](C)CC)[C@@H](C)CC)[C@@H](C)O)C(N)=O` [compound 82]: the EC50 – broadly, the concentration at which the effect is half-maximal – was 10.9 nM in assay [1] (read-out: CRF2R EC50) and 96.2 nM in assay [2] (read-out: CRF1R EC50).
In the same order, the values of `CC[C@H](C)[C@H](NC(=O)[C@@H](NC(=O)[C@H](CC(=O)O)NC(=O)[C@H](CC(C)C)NC(=O)[C@H](CC(C)C)NC(=O)[C@H](CC(C)C)NC(=O)[C@H](CCCNC(=N)N)NC(=O)[C@H](CC(N)=O)NC(=O)[C@H](CC(N)=O)NC(=O)[C@H](C)NC(=O)[C@H](C)NC(=O)[C@H](CCC(N)=O)NC(=O)[C@H](CCC(N)=O)NC(=O)[C@H](CCCCN)NC(=O)[C@H](CCC(=O)O)NC(=O)[C@H](CCCCN)NC(=O)[C@H](CCC(=O)O)NC(=O)[C@H](CCC(N)=O)NC(=O)[C@H](CCCCN)NC(=O)[C@H](CCC(=O)O)NC(=O)[C@@H](NC(=O)[C@H](CCC(=O)O)NC(=O)[C@@H](NC(=O)[C@H](CCSC)NC(=O)[C@H](CCCCN)NC(=O)[C@H](CCCNC(=N)N)NC(=O)[C@H](CC(C)C)NC(=O)[C@H](CC(C)C)NC(=O)[C@H](Cc1ccc(O)cc1)NC(=O)[C@H](Cc1ccccc1)NC(=O)[C@@H]1CCCN1C(=O)[C@H](CC(C)C)NC(=O)[C@H](CC(=O)O)NC(=O)[C@@H](NC(=O)[C@H](CO)NC(=O)[C@@H](NC(=O)[C@@H]1CCCN1C(=O)[C@@H]1CCCN1C(=O)CNC(=O)[C@@H]1CCC(=O)N1)[C@@H](C)CC)[C@@H](C)CC)[C@@H](C)CC)[C@@H](C)CC)[C@@H](C)O)C(N)=O` [compound 85] are 2.34 nM and 11 nM.
The matching figures for `CC[C@H](C)[C@H](NC(=O)[C@H](CCCNC(=N)N)NC(=O)[C@H](C)NC(=O)[C@H](CC(N)=O)NC(=O)[C@@H](NC(=O)[C@@H](NC(=O)[C@H](C)NC(=O)[C@H](CCC(N)=O)NC(=O)[C@H](CCC(N)=O)NC(=O)[C@H](CCCCN)NC(=O)[C@H](CCC(=O)O)NC(=O)[C@H](CCCCN)NC(=O)[C@H](CCC(=O)O)NC(=O)[C@H](CCC(N)=O)NC(=O)[C@H](CCCCN)NC(=O)[C@H](CCC(=O)O)NC(=O)[C@@H](NC(=O)[C@H](CCC(=O)O)NC(=O)[C@@H](NC(=O)[C@H](CCSC)NC(=O)[C@H](CCCCN)NC(=O)[C@H](CCCNC(=N)N)NC(=O)[C@H](CC(C)C)NC(=O)[C@H](CC(C)C)NC(=O)[C@H](CCC(=O)O)NC(=O)[C@H](CC(C)C)NC(=O)[C@H](CO)NC(=O)[C@H](CC(C)C)NC(=O)[C@H](CC(=O)O)NC(=O)[C@@H](NC(=O)[C@H](CO)NC(=O)[C@@H](NC(=O)[C@@H]1CCCN1C(=O)[C@@H]1CCCN1C(=O)CNC(=O)[C@@H]1CCC(=O)N1)[C@@H](C)CC)[C@@H](C)CC)[C@@H](C)CC)[C@@H](C)CC)[C@@H](C)O)[C@@H](C)O)C(=O)N[C@@H](CC(C)C)C(=O)N[C@@H](C)C(=O)N[C@@H](CCCNC(=N)N)C(=O)N[C@H](C(N)=O)C(C)C` [compound 142]: 9.08 nM and 43.5 nM.
For `CC[C@H](C)[C@H](NC(=O)[C@H](CCCNC(=N)N)NC(=O)[C@H](C)NC(=O)[C@H](CC(N)=O)NC(=O)[C@@H](NC(=O)[C@@H](NC(=O)[C@H](C)NC(=O)[C@H](CCC(N)=O)NC(=O)[C@H](CCC(N)=O)NC(=O)[C@H](CCCCN)NC(=O)[C@H](CCC(=O)O)NC(=O)[C@H](CCCCN)NC(=O)[C@H](CCC(=O)O)NC(=O)[C@H](CCC(N)=O)NC(=O)[C@H](CCCCN)NC(=O)[C@H](CCC(=O)O)NC(=O)[C@@H](NC(=O)[C@H](CCC(=O)O)NC(=O)[C@@H](NC(=O)[C@H](CCSC)NC(=O)[C@H](CCCCN)NC(=O)[C@H](CCCNC(=N)N)NC(=O)[C@H](CC(C)C)NC(=O)[C@H](CC(C)C)NC(=O)[C@H](CCC(=O)O)NC(=O)[C@H](CC(C)C)NC(=O)[C@@H]1CCCN1C(=O)[C@H](CC(C)C)NC(=O)[C@H](CC(=O)O)NC(=O)[C@@H](NC(=O)[C@H](CO)NC(=O)[C@@H](NC(=O)[C@@H]1CCCN1C(=O)[C@@H]1CCCN1C(=O)CNC(=O)[C@@H]1CCC(=O)N1)[C@@H](C)CC)[C@@H](C)CC)[C@@H](C)CC)[C@@H](C)CC)[C@@H](C)O)[C@@H](C)O)C(=O)N[C@@H](CC(C)C)C(=O)N[C@@H](C)C(=O)N[C@@H](CCCNC(=N)N)C(=O)N[C@H](C(N)=O)C(C)C` [compound 143], the results for the half-maximal effective concentration (EC50) in assay [1] (read-out: CRF2R EC50) and in assay [2] (read-out: CRF1R EC50) were 11.1 nM and 232 nM, respectively.
Consider `CC[C@H](C)[C@H](NC(=O)[C@H](CCCNC(=N)N)NC(=O)[C@H](C)NC(=O)[C@H](CC(N)=O)NC(=O)[C@@H](NC(=O)[C@@H](NC(=O)[C@H](C)NC(=O)[C@H](CCC(N)=O)NC(=O)[C@H](CCC(N)=O)NC(=O)[C@H](CCCCN)NC(=O)[C@H](CCC(=O)O)NC(=O)[C@H](CCCCN)NC(=O)[C@H](CCC(=O)O)NC(=O)[C@H](CCC(N)=O)NC(=O)[C@H](CCCCN)NC(=O)[C@H](CCC(=O)O)NC(=O)[C@@H](NC(=O)[C@H](CCC(=O)O)NC(=O)[C@@H](NC(=O)[C@H](CCSC)NC(=O)[C@H](CCCCN)NC(=O)[C@H](CCCNC(=N)N)NC(=O)[C@H](CC(C)C)NC(=O)[C@H](CC(C)C)NC(=O)[C@H](Cc1c[nH]cn1)NC(=O)[C@H](CC(C)C)NC(=O)[C@@H]1CCCN1C(=O)[C@H](CC(C)C)NC(=O)[C@H](CC(=O)O)NC(=O)[C@@H](NC(=O)[C@H](CO)NC(=O)[C@@H](NC(=O)[C@@H]1CCCN1C(=O)[C@@H]1CCCN1C(=O)CNC(=O)[C@@H]1CCC(=O)N1)[C@@H](C)CC)[C@@H](C)CC)[C@@H](C)CC)[C@@H](C)CC)[C@@H](C)O)[C@@H](C)O)C(=O)N[C@@H](CC(C)C)C(=O)N[C@@H](C)C(=O)N[C@@H](CCCNC(=N)N)C(=O)N[C@H](C(N)=O)C(C)C` [compound 145], for which the EC50 worked out at 7.8 nM in assay [1] and 196 nM in assay [2].
The matching figures for `CC[C@H](C)[C@H](NC(=O)[C@H](CCCNC(=N)N)NC(=O)[C@H](C)NC(=O)[C@H](CC(N)=O)NC(=O)[C@@H](NC(=O)[C@@H](NC(=O)[C@H](C)NC(=O)[C@H](CCC(N)=O)NC(=O)[C@H](CCC(N)=O)NC(=O)[C@H](CCCCN)NC(=O)[C@H](CCC(=O)O)NC(=O)[C@H](CCCCN)NC(=O)[C@H](CCC(=O)O)NC(=O)[C@H](CCC(N)=O)NC(=O)[C@H](CCCCN)NC(=O)[C@H](CCC(=O)O)NC(=O)[C@@H](NC(=O)[C@H](CCC(=O)O)NC(=O)[C@@H](NC(=O)[C@H](CCSC)NC(=O)[C@H](CCCCN)NC(=O)[C@H](CCCNC(=N)N)NC(=O)[C@H](CC(C)C)NC(=O)[C@H](CC(C)C)NC(=O)[C@H](CCC(N)=O)NC(=O)[C@H](Cc1ccccc1)NC(=O)[C@@H]1CCCN1C(=O)[C@H](CC(C)C)NC(=O)[C@H](CC(=O)O)NC(=O)[C@@H](NC(=O)[C@H](CO)NC(=O)[C@@H](NC(=O)[C@@H]1CCCN1C(=O)[C@@H]1CCCN1C(=O)CNC(=O)[C@@H]1CCC(=O)N1)[C@@H](C)CC)[C@@H](C)CC)[C@@H](C)CC)[C@@H](C)CC)[C@@H](C)O)[C@@H](C)O)C(=O)N[C@@H](CC(C)C)C(=O)N[C@@H](C)C(=O)N[C@@H](CCCNC(=N)N)C(=O)N[C@H](C(N)=O)C(C)C` [compound 148]: 9.45 nM and 295 nM.
